This passage reports inhibition results from PubChem BioAssay AID602244 (Sanford-Burnham Center for Chemical Genomics, 2012).

The chains behind the UniProt entries cited, without tags or fusion partners.
UniProt O00574, whole entry: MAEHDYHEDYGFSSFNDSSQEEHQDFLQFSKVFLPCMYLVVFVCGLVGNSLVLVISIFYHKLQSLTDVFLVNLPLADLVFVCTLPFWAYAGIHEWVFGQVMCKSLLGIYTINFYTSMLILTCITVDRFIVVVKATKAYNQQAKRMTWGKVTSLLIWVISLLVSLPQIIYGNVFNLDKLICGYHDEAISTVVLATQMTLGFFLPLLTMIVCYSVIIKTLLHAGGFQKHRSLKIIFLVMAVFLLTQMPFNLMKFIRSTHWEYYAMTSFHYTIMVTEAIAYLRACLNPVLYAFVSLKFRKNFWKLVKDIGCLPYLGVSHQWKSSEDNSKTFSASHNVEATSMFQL

For orientation: inhibition means the drop in the measured response relative to a control, in per cent.

This is a selection; strong and weak results do not stand in their true shares. Calls of active or inactive are those of the source. Rule as the data show it: active = inhibition above about 34% (passing the limit was not always enough); inactive = the rest.

In this assay the target is C-X-C chemokine receptor type 6 (Homo sapiens) (UniProt O00574). The assay can be described thus: CXCR6 receptor inhibitors, primary screen, cell-based, beta-arrestin, luminescence, CHO-K1 PathHunter, 1536-well (AID 602244).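 Also: antagonist mode with CXCL16 agonist at 10 nM final; 0% = 10 nM CXCL16 with DMSO and 100% = unstimulated wells without agonist.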 As to conditions: at 20 µM, stronger effect = higher value.
With `Cc1cccc(NC2(C#N)CCN(Cc3ccccc3)CC2)c1`, the inhibition is inactive: -2.6%.
Regarding `CSc1ccccc1C(=O)NCC1(N2CCCCC2)CCCCC1`, the inhibition was inactive: 11.8%.
In the case of `CCC(c1nnnn1C1CCCC1)N1CCC(n2c(=O)[nH]c3ccccc32)CC1` (stereo unspecified), the inhibition was inactive: 4.8%.
Turning to `COc1ccc(C(=O)NCC2(N3CCCCC3)CCCCC2)c(OC)c1OC`, the inhibition was inactive: 3.3%.
Regarding `CC(C)(C)OC(=O)N1CCC(N(C(=O)c2ccccc2)c2ccc(F)cc2)CC1`, the inhibition was inactive: 8%.
As for `COc1ccc(C(=O)NCC2(N3CCCCC3)CCCCC2)cc1`, the inhibition was inactive: 6.2%.
Then `CCCCn1nnnc1C(c1cccs1)N1CCC(n2c(=O)[nH]c3ccccc32)CC1` (stereo unspecified), with inactive: 16.7%.
`CCCCn1nnnc1C(CC)N1CCC(n2c(=O)[nH]c3ccccc32)CC1` (stereo unspecified): the inhibition is inactive: -1.6%.
Regarding `O=C(NCC1(N2CCCCC2)CCCCC1)c1cccs1`, the inhibition is inactive: 7.5%.
Regarding `O=C(NCC1(N2CCCCC2)CCCCC1)c1ccc(=O)[nH]c1`, the inhibition is inactive: -4.4%.
Turning to `COc1ccc(Cl)cc1C(=O)NCC1(N2CCOCC2)CCCCC1`, the inhibition was inactive: -3.1%.
As for `O=C(OC1CN2CCC1CC2)C1c2ccccc2Oc2ccccc21` (stereo unspecified), the figure is inactive: 17.3%; as for `O=c1[nH]c2ccccc2n1C1CCN(C(c2cc3ccccc3o2)c2nnnn2C2CCCCC2)CC1` (stereo unspecified), inactive: -6.7%.
Take `N#CC1(Nc2ccccc2)CCN(Cc2ccccc2)CC1`: the inhibition is inactive: 13%.
As for `O=C(NCC1(N2CCCCC2)CCCCC1)c1ccc(Cl)s1`, the figure is inactive: 7.5%; as for `CCCCn1nnnc1C(c1ccc(OC)cc1)N1CCC(n2c(=O)[nH]c3ccccc32)CC1` (stereo unspecified), inactive: 1%; as for `CCOC(=O)N1CCC(Nc2ccc(OC)cc2)CC1`, inactive: 3.8%.
For the compound `Cc1cc(C)cc(N(C(=O)c2ccccc2)C2CCN(C(=O)OC(C)(C)C)CC2)c1`, the inhibition was inactive: 0.9%.
Regarding `O=c1[nH]c2ccccc2n1C1CCN(C(c2ccccc2OC(F)(F)F)c2nnnn2C2CCCCC2)CC1` (stereo unspecified), the inhibition is inactive: 6.1%.
Consider `O=C(NCC1(N2CCCCC2)CCCCC1)c1ccc(Cl)nc1`, for which the inhibition is inactive: 1.7%.
Consider `O=C(NCC1(N2CCOCC2)CCCCC1)c1cc2ccccc2o1`, for which the inhibition was inactive: -31.3%.
`COc1ccc(NC2CCN(CCc3ccccc3)CC2)c(OC)c1`: the inhibition was inactive: -1.6%.
Turning to `CCOC(=O)N1CCC(Nc2ccc(F)cc2)CC1`, the inhibition is inactive: -3.8%.
Then `O=C(NCC1(N2CCCCC2)CCCCC1)c1ccc(F)cc1`, with inactive: 2.4%.
On to `O=P1(N(CCCl)CCCl)SCCCS1`, for which the inhibition was inactive: -0.2%.
With `CCCCn1nnnc1C(c1cc2ccccc2o1)N1CCC(n2c(=O)[nH]c3ccccc32)CC1` (stereo unspecified), the inhibition was inactive: 7.9%.
Take `CCCCOc1ccc(C(=O)NCC2(N3CCOCC3)CCCCC2)cc1`: the inhibition was inactive: 12.2%.
For the compound `O=C1CCN(Cc2ccccc2)CC1`, the inhibition was inactive: 9.8%.
As for `CC(C)(C)n1nnnc1C(c1ccccc1)N1CCC(n2c(=O)[nH]c3ccccc32)CC1` (stereo unspecified), the figure is inactive: 1.6%; as for `CCOc1ccc(C)cc1CN(CCCl)CCCl`, inactive: 7%; as for `COc1cc(C(=O)NCC2(N(C)C)CCCCC2)ccc1OC(F)F`, inactive: -5.1%.
`CCOC(=O)N1CCC(Nc2cccc(C)c2)CC1`: the inhibition is inactive: 8.3%.
With `O=c1[nH]c2ccccc2n1C1CCN(C(c2cccc3ccccc23)c2nnnn2C2CCCC2)CC1` (stereo unspecified), the inhibition is inactive: 10.7%.
As for `O=c1[nH]c2ccccc2n1C1CCN(C(c2ccccc2)c2nnnn2C2CCCCC2)CC1` (stereo unspecified), the figure is inactive: 4%; as for `N#CC1(Nc2ccccc2)CCN(CCc2ccccc2)CC1`, inactive: 3.2%; as for `O=c1[nH]c2ccccc2n1C1CCN(C(c2ccccc2OC(F)(F)F)c2nnnn2C2CCCC2)CC1` (stereo unspecified), inactive: 8.3%.
Then `CCN1CCC(Nc2ccc(Cl)cc2)CC1`, with inactive: 3.4%; and `CSc1ccc(C(=O)NCC2(N3CCOCC3)CCCCC2)cc1`, with inactive: -0.3%.
Take `O=C(NCC1(N2CCCCC2)CCCCC1)c1cccc([N+](=O)[O-])c1`: the inhibition is inactive: -2.4%.
With `O=C(NCC1(N2CCCCC2)CCCCC1)c1ccc(OC(F)F)cc1`, the inhibition was inactive: 11%.
Consider `CC(C)(C)n1nnnc1C(c1ccccc1OC(F)(F)F)N1CCC(n2c(=O)[nH]c3ccccc32)CC1` (stereo unspecified), for which the inhibition is inactive: 11.7%.
As for `COc1cc(C(=O)NCC2(N3CCCCC3)CCCCC2)ccc1OC(F)F`, the inhibition is inactive: 11%.
On to `O=C(NCC1(N2CCOCC2)CCCCC1)c1cc(=O)[nH]c2ccccc12`, for which the inhibition was inactive: -3.5%.
With `CCCCn1nnnc1C(c1cccc2ccccc12)N1CCC(n2c(=O)[nH]c3ccccc32)CC1` (stereo unspecified), the inhibition is inactive: 6.8%.
In the case of `CN1CCN(CCOC(=O)C(O)(c2ccccc2)c2ccccc2)CC1`, the inhibition is inactive: -3.2%.
Consider `COc1ccc(NC2CCN(C(=O)OC(C)(C)C)CC2)cc1`, for which the inhibition was inactive: -3.6%.
Consider `CC(C)c1ccc(C(=O)NCC2(N3CCOCC3)CCCCC2)cc1`, for which the inhibition was inactive: 0.6%.
For the compound `O=C(NCC1(N2CCCCC2)CCCCC1)c1cccc(C(F)(F)F)c1`, the inhibition is inactive: 3.9%.
As to `CCC(c1nnnn1C(C)(C)C)N1CCC(n2c(=O)[nH]c3ccccc32)CC1` (stereo unspecified), the inhibition was inactive: -1.8%.
With `O=C(NCC1(N2CCOCC2)CCCCC1)c1cc(F)c(F)cc1Cl`, the inhibition is inactive: 7.4%.
Take `COc1cc(OC)c(C(=O)NCC2(N(C)C)CCCCC2)cc1OC`: the inhibition is inactive: -4.8%.
As for `CCCCn1nnnc1C(c1ccnc2ccccc12)N1CCC(n2c(=O)[nH]c3ccccc32)CC1` (stereo unspecified), the inhibition is inactive: -2%.
Consider `CC(C)c1ccc(NC2CCN(C(=O)OC(C)(C)C)CC2)cc1`, for which the inhibition was inactive: -3.2%.
Then `CCCCn1nnnc1C(c1ccccc1OC(F)(F)F)N1CCC(n2c(=O)[nH]c3ccccc32)CC1` (stereo unspecified), with inactive: 12.3%; and `CN(C)c1cccc(C(=O)NCC2(N3CCCCC3)CCCCC2)c1`, with inactive: 9.7%.
Take `COc1ccc(CN(CCCl)CCCl)cc1Cl`: the inhibition is inactive: -1.2%.
`COc1ccc(C(c2nnnn2C2CCCC2)N2CCC(n3c(=O)[nH]c4ccccc43)CC2)cc1` (stereo unspecified): the inhibition was inactive: 1.5%.
`CCCOc1ccc(C(=O)NCC2(N(C)C)CCCCC2)cc1OC`: the inhibition was inactive: -6.7%.
Take `Cc1ccc(C(=O)NCC2(N(C)C)CCCCC2)o1`: the inhibition was inactive: 3.6%.
For the compound `O=C(NCC1(N2CCCCC2)CCCCC1)c1cncc(Br)c1`, the inhibition was inactive: 3.3%.
`CN1CCC(Nc2cccc(F)c2)CC1`: the inhibition was inactive: -5.6%.
